In PubChem BioAssay AID602 (SRMLSC, 2007):
This is a selection; strong and weak results do not stand in their true shares. The source made the active and inactive calls.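 Rule for the calls: active = viability drop by adding the cancer drug above about 55%, with treated viability meeting a 40% cutoff (limit read from the data); inactive = the rest, inconclusive results apart.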

Experiment: reversal of MRP1-mediated doxorubicin resistance, primary screen, H69AR cells, doxorubicin co-treatment (AID 602);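 note: viability without doxorubicin minus viability with 2 µM doxorubicin for each compound; larger differential means the compound sensitizes cells more to doxorubicin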
Details: H69AR cells + 2 uM doxorubicin, CellTiter-Glo, 72 h; at 10 µM; stronger effect = higher value

Row | Structure (SMILES) | differential viability (reversal)
1 | O=C(OC1CN2CCC1CC2)C12CC3CC(CC(C3)C1)C2 (stereo not drawn) | inactive: 23.1%
2 | COc1ccc(OP(C)(=O)Nc2cccc(F)c2)cc1 (stereo not drawn) | inactive: 8.24%
3 | Cc1ccc(NP(C)(=O)Oc2ccccc2)c(C)c1 (stereo not drawn) | inactive: 19.7%
4 | COc1ccccc1OP(C)(=O)Nc1ccc(C)cc1 (stereo not drawn) | inactive: -9.76%
5 | ClCCSc1nnc(-c2cccnc2)o1 | inactive: 5.53%
6 | CP(=S)(Nn1cnnc1)Oc1ccccc1 (stereo not drawn) | inactive: -7.41%
7 | CP(=O)(Nc1ccccn1)Oc1ccc(Cl)cc1 (stereo not drawn) | inactive: 3.87%
8 | CCC(C)N(CC(C)C)C(=S)SC(NC(C)=O)C(Cl)(Cl)Cl (stereo not drawn) | inactive: -12.2%
9 | CCOP(C)(=S)SCC(=O)NC(C)C(=O)O (stereo not drawn) | inactive: 6.49%
10 | CP(=O)(NC(=O)Nc1ccccc1)Oc1ccccc1 (stereo not drawn) | inactive: 3.82%
11 | O=C(COc1ccccc1)OC1CN2CCC1CC2 (stereo not drawn) | inactive: -3.56%
12 | COP1(=S)c2c(C)nn(CCC#N)c2N=C(c2ccc(F)cc2)N1C (stereo not drawn) | inactive: -20.8%
13 | Cc1nc2ccc3ccccc3c2s1.O=[N+]([O-])c1cc([N+](=O)[O-])c(O)c([N+](=O)[O-])c1 | inactive: -5.61%
14 | CC1(CBr)Cn2c(nc3ccccc3c2=O)S1 (stereo not drawn) | inactive: 6.53%
15 | Clc1n[nH]nc1-c1nn[nH][15n]1 | inactive: 4.35%
16 | O=P1(Nc2ccccn2)COc2ccccc2OC1 | inactive: -13.7%
17 | O=P1(Nc2ccc(Br)cn2)COc2ccccc2OC1 | inactive: 7.27%
18 | Cc1ccc(OCC(=O)OC2CN3CCC2CC3)cc1 (stereo not drawn) | inactive: -4.93%
19 | O=P1(Nc2ncccn2)COc2ccccc2OC1 | inactive: -10.5%
20 | COc1ccccc1OP(C)(=O)Nc1c(C)cccc1C (stereo not drawn) | inactive: 1.92%

Row | Structure (SMILES) | differential viability (reversal)
21 | Cc1nn(-c2ccccc2)c2c1P(=O)(N1CCOCC1)N(C)C(c1ccccc1)=N2 (stereo not drawn) | inactive: 9.41%
22 | CCOP1(=S)c2c(C)nn(CCC#N)c2N=C(c2ccc(F)cc2)N1C (stereo not drawn) | inactive: -0.26%
23 | CCOP1(=S)c2c(C)nn(CCC#N)c2N=C(c2ccccc2F)N1C (stereo not drawn) | inactive: -1.49%
24 | Cc1ccc(C)c(NP(C)(=O)Oc2ccccc2)c1 (stereo not drawn) | inactive: -5.04%
25 | Cc1cc(C)cc(OP(C)(=O)Nc2ccccn2)c1 (stereo not drawn) | inactive: -7.48%
26 | Cc1cc(C)cc(OP(C)(=O)Nc2ccc(C)cc2C)c1 (stereo not drawn) | inactive: 12.8%
27 | Cc1cccc(OCC(=O)OC2CN3CCC2CC3)c1 (stereo not drawn) | inactive: 0.07%
28 | CP(=O)(Nc1ccccc1F)Oc1ccccc1 (stereo not drawn) | inactive: 3.46%
29 | O=P1(Nc2nc3ccc(Cl)cc3s2)COc2ccccc2O1 (stereo not drawn) | inactive: 12.8%
30 | CP(=O)(Nc1ccccc1)Oc1ccc(F)cc1 (stereo not drawn) | inactive: -3.8%
31 | COC(=O)c1cc2c(s1)N=C(c1ccccc1)N(C)P2(=O)N1CCOCC1 (stereo not drawn) | inactive: -1.67%
32 | CCN(CC)CCCOC(=O)C(O)(c1ccccc1)C1CCCCC1 (stereo not drawn) | inactive: -12.6%
33 | O=C(OC1CN2CCC1CC2)c1cccc(Cl)c1 (stereo not drawn) | inactive: -7.38%
34 | CN(C)CCOC(=O)C(O)(c1ccccc1)C1CCCCC1 (stereo not drawn) | inactive: 9.91%
35 | Cc1ccccc1NP(C)(=O)Nc1ccccc1C | inactive: -13.5%
36 | CP(=O)(Nc1ccc2c(c1)OCCO2)Oc1ccccc1 (stereo not drawn) | inactive: 1.42%
37 | c1nnnn1CCn1cnnn1 | inactive: -1.27%
38 | O=P(Nc1nccs1)(c1ccccc1)c1ccccc1 | inactive: 0.34%
39 | CC1CCN(C(=O)Oc2c(Cl)cc(Cl)c3cccnc23)CC1 | inactive: 23.7%
40 | CC(C)(C)c1ccc(OP(C)(=O)O)cc1 | inactive: -2.16%

Row | Structure (SMILES) | differential viability (reversal)
41 | CP(=O)(Nc1ccc(Cl)cc1)Oc1ccc(F)cc1 (stereo not drawn) | inactive: 6.95%
42 | COc1ccccc1OP(C)(=O)Nc1c(C)n(C)n(-c2ccccc2)c1=O (stereo not drawn) | inactive: 5.41%
43 | O=[N+]([O-])c1cccc2n[nH]nc12 | inactive: 4.66%
44 | CCc1nc2c(n1)c1c(non1O)c1c2no[n+]1[O-] | inactive: 1.2%
45 | CP(=O)(Oc1ccccc1)N1CCOC1=O (stereo not drawn) | inactive: 6.43%
46 | CP(=O)(OC12CC3CC(CC(C3)C1)C2)OC12CC3CC(CC(C3)C1)C2 | inactive: 26.1%
47 | Cc1nc2ccc3ccccc3c2o1.O=[N+]([O-])c1cc([N+](=O)[O-])c(O)c([N+](=O)[O-])c1 | inactive: 7.84%
48 | COc1ccccc1OP(C)(=O)Nc1ccc(C)c(C)c1 (stereo not drawn) | inactive: 4.8%
49 | CCOP(=O)(Nc1ccccc1)OCC | inactive: -2.08%
50 | COc1ccccc1OP(C)(=O)Nc1ccc(C)cc1C (stereo not drawn) | inactive: 3.67%
51 | CP(=O)(Nc1ccccn1)Oc1ccccc1 (stereo not drawn) | inactive: -13.3%
52 | CCc1ccc(OP(C)(=O)O)cc1 | inactive: -15.5%
53 | Cc1c(NP(C)(=O)Oc2ccc(C(C)C)cc2)c(=O)n(-c2ccccc2)n1C (stereo not drawn) | inactive: -15.9%
54 | Cc1c2non([O-])c-2c(C)[n+](=O)[n+]1[O-] | inactive: -0.33%
55 | Oc1ccccc1CNc1ccccn1 | inactive: 1.65%
56 | COc1ccc(OP(C)(=O)Nc2ccccn2)cc1 (stereo not drawn) | inactive: -6.78%
57 | CN(C)CCOC(=O)C(O)(c1ccccc1)C1CCCC1 (stereo not drawn) | inactive: 20.5%
58 | CN1CCCC(OC(=O)C(c2ccccc2)c2ccccc2)C1 (stereo not drawn) | inactive: -5.9%
